{"source": "patent EP1685120B1", "about": "“COLOURING HYDROSOLUBLE YELLOW PREPARATION DERIVED FROM DIHYDROCHALCONES” (INSTITUT NATIONAL DE LA RECHERCHE AGRONOMIQUE, priority 2003, dated 2005)", "key": {"[1]": {"assay": "Colorimetric parameters CIE L*a*b* (Minolta CM-3600d spectrophotometer) in Mc Ilvaine buffer", "assay_type": "physicochemical", "conditions": "tampon de Mc Ilvaine", "from_the_text": "Les paramètres de coloration du colorant par rapport à de l'eau distillée (référence) ont été mesurés en solution dans un tampon de M^c Ilvaine (citrate-phosphate) à différents pH (2,2 à 8) et ce, pour plusieurs concentrations.\nLes mesures ont été réalisées à l'aide d'un spectrophotomètre Minolta CM-3600d (©1998 Minolta Co., Ltd. Japon) avec la plaque de calibration (Minolta n° 13171008). Le spectrophotomètre équipé d'un logiciel de retraitement SpectraMagic V 3.60G (Cyberchrome Inc Minolta Co. Ltd), a été paramétré pour utiliser l'espace colorimétrique CIE L*a*b (Figure 2), avec l'illuminant D65-10° (D65-A-F2), et l'observateur moyen normalisé 10° CIE 1964 (sensibilité d'un oeil moyen). A partir des valeurs a* et b* nous avons calculé les coordonnées polaires C* = sqrt(((a*))^2 + ((b*))^2) et h = tan g^-1 ((a*)/(b*)) × (180)/(Pi) [formula] Dans la suite du texte nous exploiterons principalement ces coordonnées polaires C* et h, car elles ont chacune une signification colorimétrique : C* est la distance au centre de l'espace et correspond à la saturation de la couleur alors que h est un angle (exprimé ici en degré) qui définit la teinte. A titre indicatif pour la couleur rouge la teinte se situe au voisinage de 0°, pour le jaune environ 90°, pour le vert 180° et pour le bleu 270°. La valeur L* est utilisée telle quelle et exprime la clarté."}, "[2]": {"system": "cellules TC-7", "assay": "Cytotoxicity test, cell viability by neutral red method", "assay_type": "cell-based", "conditions": "2 h incubation, 540 nm, single replicates, listed as POP purifié", "method": "Cellules TC-7 (sous clone de caco-2) cultivées sur nacelles (membrane en polyéthylène téréphtalate), utilisées à 21 jours de confluence, fournie par Bioprédic International\nEmploi des cellules au passage 21.\nProduit \"POP\" purifié (composé de formule I-b-1), obtenu tel que décrit précédemment (paragraphe D) : solubilisé directement dans le tampon apical, testé à 20, 100, 200, 1000 et 2000 µM pour le test de cytotoxicité. Pas de solvant utilisé pour la solubilisation des produits à l'essai.\nSystème réactionnel : cultures de cellules TC-7 incubées en présence des produits à l'essai aux différentes concentrations citées ci-dessus.\nTemps d'incubation : 2 heures. [drawing 6] ↑ : incubation des produits à l'essai ? : évaluation des effets Replicate : 5 par concentrations. Température d'incubation : 37°C. Autres conditions : atmosphère humide contenant 5 % de CO2.\nTémoin : correspondant aux cellules incubées en absence de produit à l'essai [drawing 8] Replicate : 10\nViabilité cellulaire mesurée selon la méthode du rouge neutre après incubation avec les produits à l'essai : • incubation en présence de rouge neutre pendant 3 heures • lyse des cellules et lecture de la densité optique avec un spectrophotomètre à 540 nm (la densité optique du rouge neutre est proportionnelle au nombre de cellules vivantes).\nExpression des résultats : en unités arbitraires de D.O.(densité optique) par échantillon et en pourcentage de variation par rapport au groupe témoin."}}, "note": "Values joined by “and” are separate entries in the source; they are usually repeats but may differ in a detail not shown here. Equal entries are not always repeated.", "data": [{"substance": "acide 3-(4'-hydroxy-2'-glucosyl-4,5-dioxo-3,6-dihydro-2H-dibenzofuran-2-yl)-propionique [I-b-1]", "values": [{"measurement": "C* : saturation", "setting": "[1]; 5 mg/L, pH 3", "result": "12,4"}, {"measurement": "h", "setting": "[1]; 5 mg/L, pH 3", "result": "111,7 degré"}, {"measurement": "C* : saturation", "setting": "[1]; 10 mg/L, pH 3", "result": "24,3"}, {"measurement": "h", "setting": "[1]; 10 mg/L, pH 3", "result": "110,4 degré"}, {"measurement": "C* : saturation", "setting": "[1]; 20 mg/L, pH 3", "result": "43,7"}, {"measurement": "h", "setting": "[1]; 20 mg/L, pH 3", "result": "108,1 degré"}, {"measurement": "C* : saturation", "setting": "[1]; 40 mg/L, pH 3", "result": "69,4"}, {"measurement": "h", "setting": "[1]; 40 mg/L, pH 3", "result": "104,8 degré"}, {"measurement": "C* : saturation", "setting": "[1]; 100 mg/L, pH 3", "result": "97,6"}, {"measurement": "h", "setting": "[1]; 100 mg/L, pH 3", "result": "100,5 degré"}, {"measurement": "C* : saturation", "setting": "[1]; pH 2,2, env. 20 mg/L", "result": "42,9"}, {"measurement": "h", "setting": "[1]; pH 2,2, env. 20 mg/L", "result": "108,4 degré"}, {"measurement": "C* : saturation", "setting": "[1]; pH 3, env. 20 mg/L", "result": "43,2"}, {"measurement": "h", "setting": "[1]; pH 3, env. 20 mg/L", "result": "108,1 degré"}, {"measurement": "C* : saturation", "setting": "[1]; pH 4, env. 20 mg/L", "result": "44,3"}, {"measurement": "h", "setting": "[1]; pH 4, env. 20 mg/L", "result": "107,3 degré"}, {"measurement": "C* : saturation", "setting": "[1]; pH 5, env. 20 mg/L", "result": "48,1"}, {"measurement": "h", "setting": "[1]; pH 5, env. 20 mg/L", "result": "103,8 degré"}, {"measurement": "C* : saturation", "setting": "[1]; pH 6, env. 20 mg/L", "result": "57,7"}, {"measurement": "h", "setting": "[1]; pH 6, env. 20 mg/L", "result": "90,1 degré"}, {"measurement": "C* : saturation", "setting": "[1]; pH 7, env. 20 mg/L", "result": "73,2"}, {"measurement": "h", "setting": "[1]; pH 7, env. 20 mg/L", "result": "77,2 degré"}, {"measurement": "C* : saturation", "setting": "[1]; pH 8, env. 20 mg/L", "result": "74,8"}, {"measurement": "h", "setting": "[1]; pH 8, env. 20 mg/L", "result": "74,9 degré"}, {"measurement": "DO", "setting": "[2]; 20 µM", "result": "0,441 and 0,477 and 0,501 and 0,517 and 0,510"}, {"measurement": "DO", "setting": "[2]; 100 µM", "result": "0,432 and 0,519 and 0,517 and 0,533 and 0,518"}, {"measurement": "DO", "setting": "[2]; 200 µM", "result": "0,407 and 0,460 and 0,480 and 0,495 (2×)"}, {"measurement": "DO", "setting": "[2]; 1000 µM", "result": "0,438 and 0,521 and 0,518 and 0,535 and 0,509"}, {"measurement": "DO", "setting": "[2]; 2000 µM", "result": "0,442 and 0,436 and 0,458 and 0,476 and 0,429"}]}]}
